Test results reported in patent US20240016734A1, “ENHANCED DELIVERY EPINEPHRINE AND PRODRUG COMPOSITIONS” (Aquestive Therapeutics, Inc., priority 2022, published 2024).
Where two headings read alike, the source gives them in different places.

Conditions: 360 min
Experimental: A franz diffusion cell is obtained and prepared.
If testing films, one can perform the following next steps: (1) weigh films, punch to match diffusion area (or smaller), reweigh, record pre- and post-punching weight; (2) wet a donor area with approximately 100 μL of phosphate buffer; (3) place film on a donor surface, top with 400 μL of phosphate buffer, and start timers.
The tissue is dermatomed to precise thickness. • 4. […] The media is selected to ensure sink conditions. • 5.

CNC[C@H](O)c1ccc(O)c(O)c1 [Epinephrine Bitartrate]
Ratio of enhancement (8 mg/mL): 2.8 | Ratio of enhancement (16 mg/mL): 7.9 | Ratio of enhancement (100 mg/mL): 17.6
